The assay has as its target 5-hydroxytryptamine receptor 4 (Rattus norvegicus, UniProt Q62758).

Chains of the proteins cited; added tags and fusions are not shown. Lines headed by an entry give the natural chain unless they say otherwise; changes in a name come on top.
UniProt Q62758: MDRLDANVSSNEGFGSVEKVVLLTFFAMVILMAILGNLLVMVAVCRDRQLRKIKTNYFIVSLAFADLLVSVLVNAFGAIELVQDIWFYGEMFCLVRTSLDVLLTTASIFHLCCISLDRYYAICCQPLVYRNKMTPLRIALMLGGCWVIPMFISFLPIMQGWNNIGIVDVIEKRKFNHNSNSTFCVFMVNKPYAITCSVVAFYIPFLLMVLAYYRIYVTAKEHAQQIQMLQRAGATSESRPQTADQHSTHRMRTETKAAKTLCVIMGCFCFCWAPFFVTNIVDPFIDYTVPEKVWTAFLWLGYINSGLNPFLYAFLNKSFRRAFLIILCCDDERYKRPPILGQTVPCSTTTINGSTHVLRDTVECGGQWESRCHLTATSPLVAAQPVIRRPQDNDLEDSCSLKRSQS

As for `NCCc1c[nH]c2ccc(O)cc12` [[3H]-5-HT], the inhibition constant Ki (usually a measure of affinity in units of concentration, obtained from inhibition or displacement) amounted to 6.3 nM.

The record behind these values is BindingDB's records for doi:10.1016/0014-2999(96)00122-7 (Synaptic Pharmaceutical, 1996).
